Measured affinities in a library of Ab-14 light chain variants

From the AlphaSeq antibody data of Engelhart et al. 2022 (doi:10.1038/s41597-022-01779-4), copy in the FLAb collection.

All variants were tested on one target, the spike HR2 peptide PDVDLGDISGINAS (SARS-CoV-2).

The variants keep the heavy chain, the linker and the frameworks of Ab-14 (scFv order VH, the linker GGGGSGGGGSGGGGS, VL).
VH: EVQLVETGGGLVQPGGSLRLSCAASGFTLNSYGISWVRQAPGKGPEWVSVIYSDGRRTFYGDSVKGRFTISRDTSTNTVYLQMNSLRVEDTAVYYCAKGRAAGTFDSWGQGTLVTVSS
VL: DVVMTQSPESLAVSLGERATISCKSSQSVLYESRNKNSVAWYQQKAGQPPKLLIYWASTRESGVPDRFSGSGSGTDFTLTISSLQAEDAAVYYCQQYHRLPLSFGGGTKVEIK

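Variants in AAYL50 differ from the parent at up to three CDR positions; double and triple changes were sampled at random. AlphaSeq pools MATa yeast showing the antibodies with MATalpha yeast showing the peptide. Binding brings cells together so that they mate, and sequencing counts the barcode pairs among the diploids. Read counts were normalised to the haploid input and turned into Kd by a linear fit to BCL2-family pairs of known affinity, for each replicate. Each pool was mated in three replicate cultures.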

Each variant is given by its three light chain CDRs, as the data file delimits them; those of the parent are KSSQSVLYESRNKNSVA, WASTRES, QQYHRLPLS. Affinities are written as log10 Kd with Kd in nM; a lower number is a better binder. Replicates are averaged; those with no signal do not enter the mean. An entry "n.d." has no value in the source: the pair was not observed among the diploids in that replicate. This suggests poor binding but is not conclusive. In this assay the parent's reference entry averaged 0.65; its copy inside this library read 1.68.

| CDR-L1 | CDR-L2 | CDR-L3 | log10 Kd, replicates | log10 Kd (nM), mean | signal with controls |
|---|---|---|---|---|---|
| KSSPSVLYEHRNKNSVA | WASTRES | QQYHRYPLS | 1.58 1.72 1.43 | 1.58 | 4 of 9 (4.67) |
| KSSQSVNYESRNKNSVA | WASTRET | RQYHRLPLS | n.d. n.d. n.d. | n.d. | 0 of 9 |
| KSFQSGLVESRNKNSVA | WASTRES | QQYHRLPLS | 0.80 1.16 0.95 | 0.97 | 1 of 9 (5.07) |
| KSSQSRLYYSRNKNSVA | WASTRES | RQYHRLPLS | 2.78 n.d. n.d. | 2.78 | 0 of 9 |
| KSSQSVLYESRNVNSVA | WKSTRES | QQYHRLPLS | 2.99 2.75 3.22 | 2.99 | 7 of 9 (4.97) |
| NSSSSVLYESRNKNSVA | WASTRES | QQYHRLVLS | n.d. 3.93 n.d. | 3.93 | 1 of 9 (3.43) |
| KSSQSVLYESRNKNSVA | WAWTRPS | QQYHRLPPS | n.d. n.d. n.d. | n.d. | 0 of 9 |
| KSSQVVLYESRNKNSVA | WGSTRES | QQYHRRPLS | 1.93 1.73 1.98 | 1.88 | 3 of 9 (4.01) |
| RSSQSVLAESRDKNSVA | WASTRES | QQYHRLPLS | 1.23 1.34 1.41 | 1.33 | 5 of 9 (4.19) |
| KSSISVLYESRNKNSVA | WASDVES | QQYHRLPLS | n.d. 4.48 n.d. | 4.48 | 1 of 9 (4.12) |
| KSSQYELMESRNKNSVA | WASTRES | QQYHRLPLS | 0.53 0.77 0.73 | 0.68 | 1 of 9 (3.77) |
| KSSQHVLYHSRNKNSVI | WASTRES | QQYHRLPLS | n.d. 4.43 n.d. | 4.43 | 3 of 9 (4.32) |
| KSSQSVLEESRNKNSVE | WASTRES | QQYHRRPLS | 4.68 4.68 n.d. | 4.68 | 2 of 9 (5.12) |
| KSSQSVLYESRNKNSVA | WALTRGS | QQYHRLPLD | n.d. n.d. n.d. | n.d. | 0 of 9 |
| KLSQSVLYESRNKNSVH | WASTRES | QQYHREPLS | n.d. n.d. 3.80 | 3.80 | 0 of 9 |
| KSSQSVLYENRNKNSVA | WASTRES | LQYCRLPLS | 3.72 n.d. n.d. | 3.72 | 1 of 9 (4.07) |
| KSSQSVLVDSRNKNSVA | WASTRES | QQQHRLPLS | 0.83 1.03 1.12 | 1.00 | 3 of 9 (4.17) |
| KSSQSVLYESTNKNSVA | SASGRES | QQYHRLPLS | 0.68 0.86 0.81 | 0.78 | 5 of 9 (4.76) |
| KSSWSVLYGSRNKNSVA | WASTRES | QQSHRLPLS | n.d. n.d. n.d. | n.d. | 3 of 9 (3.04) |
| KSSQSVWYECRNKNDVA | WASTRES | QQYHRLPLS | 4.38 n.d. n.d. | 4.38 | 3 of 9 (3.63) |
| KSSQSVLYEKRNKNSVA | WASTPEG | QQYHRLPLS | 3.91 n.d. n.d. | 3.91 | 1 of 9 (3.79) |
| KISQSVLYEPRNKNSVA | WASTRES | QQYCRLPLS | -0.35 0.00 -0.16 | -0.17 | 0 of 9 |
| KSSQSVCYESRNKGSVA | TASTRES | QQYHRLPLS | 2.37 2.24 2.56 | 2.39 | 1 of 9 (3.55) |
| ASSQSVLYESRNKNSVA | WASTRES | IQYHYLPLS | n.d. n.d. n.d. | n.d. | 0 of 9 |
| KSSQSVLYEESNKNSVA | DASTRES | QQYHRLPLS | -0.25 0.13 -0.12 | -0.08 | 6 of 9 (5.01) |
| KSSQSVCYESRNKGSVA | WASTREP | QQYHRLPLS | 0.98 0.91 1.06 | 0.98 | 0 of 9 |
| KSVQSVLYESRNKNSVN | WLSTRES | QQYHRLPLS | n.d. n.d. 5.27 | 5.27 | 2 of 9 (4.31) |
| KSSQSVLYESRVKNSVA | WASTRRS | QQYHQLPLS | 3.72 n.d. 1.96 | 2.84 | 0 of 9 |
| KYSQSVLYESRNKNSVA | WASTRES | QQNHELPLS | n.d. n.d. n.d. | n.d. | 0 of 9 |
| KSSQSVLYESRNKTSVA | WASTTES | CQYHRLPLS | n.d. n.d. n.d. | n.d. | 1 of 9 (4.18) |
| KSSQSVLYESRNKESCA | WASTRES | QQYHRLPLF | n.d. n.d. 4.77 | 4.77 | 5 of 9 (3.91) |
| KSSQSVLYDSRNKNSVA | WASTREV | YQYHRLPLS | n.d. 3.20 n.d. | 3.20 | 1 of 9 (4.03) |
| KSGQSVLYESRPKNSVA | YASTRES | QQYHRLPLS | 4.14 4.63 5.16 | 4.64 | 7 of 9 (4.46) |
| KSSQSVMYESRNKSSVA | WASTRES | QQYHRLTLS | 2.76 2.94 3.05 | 2.92 | 5 of 9 (5.17) |
| KSSQSPLYESRNKGSVA | WASTRES | QQYARLPLS | 1.53 1.37 1.68 | 1.53 | 0 of 9 |
| KSSQSVLYESRNKNSVY | EAETRES | QQYHRLPLS | n.d. n.d. n.d. | n.d. | 1 of 9 (3.99) |
| KSSQPVPYESRNKYSVA | WASTRES | QQYHRLPLS | 0.37 0.76 0.69 | 0.61 | 1 of 9 (3.92) |
| KSSQSVIYESRNKNSVA | WASFRES | QQYHRLPLV | 2.61 1.34 2.07 | 2.01 | 1 of 9 (4.12) |
| KSSQSVLYESRPKNSVA | RASTRES | YQYHRLPLS | n.d. n.d. 5.20 | 5.20 | 1 of 9 (4.03) |
| KSSQSVLYEARNKNSIA | WASTRFS | QQYHRLPLS | 1.16 1.16 1.29 | 1.20 | 5 of 9 (4.57) |
| KNSQSVLYESRNQNSVA | WASTREQ | QQYHRLPLS | 1.96 2.11 2.06 | 2.04 | 1 of 9 (4.29) |
| KSSQSSLYESRNKNSVS | WASFRES | QQYHRLPLS | n.d. n.d. n.d. | n.d. | 2 of 9 (3.41) |
| KYSQNVLYESRNKNSVA | WASTRES | QQYHRLPLS | 0.44 0.60 0.52 | 0.52 | 1 of 9 (5.07) |
| KSSQSVLYESCNKNSVA | GASTRES | QQYHRYPLS | 0.76 0.97 0.97 | 0.90 | 4 of 9 (3.67) |
| KSSQSYLYESRNKNSVA | WASTREP | QFYHRLPLS | 0.98 1.05 1.27 | 1.10 | 0 of 9 |
| KSSQSVLYWSRNKNSVN | WASTRES | QQYHTLPLS | n.d. 3.02 5.45 | 4.23 | 2 of 9 (3.95) |
| KSSQSVLYESRNKNSVR | WASNRES | QIYHRLPLS | n.d. n.d. n.d. | n.d. | 0 of 9 |
| KSSQSVPRESRNKNSVA | WASTRES | QQYHHLPLS | 1.47 2.09 1.23 | 1.59 | 0 of 9 |
| KSSQSVYYESRNKNSVA | WTSTRET | QQYHRLPLS | 0.87 1.13 1.15 | 1.05 | 1 of 9 (4.37) |

Excerpt, the first 3 entries:

| CDR-L1 | CDR-L2 | CDR-L3 | log10 Kd, replicates | log10 Kd (nM), mean | signal with controls |
|---|---|---|---|---|---|
| KSSPSVLYEHRNKNSVA | WASTRES | QQYHRYPLS | 1.58 1.72 1.43 | 1.58 | 4 of 9 (4.67) |
| KSSQSVNYESRNKNSVA | WASTRET | RQYHRLPLS | n.d. n.d. n.d. | n.d. | 0 of 9 |
| KSFQSGLVESRNKNSVA | WASTRES | QQYHRLPLS | 0.80 1.16 0.95 | 0.97 | 1 of 9 (5.07) |

Three control strains display no target. For library AAYL50, 18% of the pairings with them gave a signal, with a median of 4.19 and one signal in twenty below 2.99, so weak values seen in few replicates may be background. The control count says in how many pairings with the empty strains this scFv gave a signal, with their mean in brackets.